The chains behind the UniProt entries cited, without tags or fusion partners. Where a name states a change or a piece, a line headed by the entry shows the natural chain unless it says otherwise.
UniProt P47869: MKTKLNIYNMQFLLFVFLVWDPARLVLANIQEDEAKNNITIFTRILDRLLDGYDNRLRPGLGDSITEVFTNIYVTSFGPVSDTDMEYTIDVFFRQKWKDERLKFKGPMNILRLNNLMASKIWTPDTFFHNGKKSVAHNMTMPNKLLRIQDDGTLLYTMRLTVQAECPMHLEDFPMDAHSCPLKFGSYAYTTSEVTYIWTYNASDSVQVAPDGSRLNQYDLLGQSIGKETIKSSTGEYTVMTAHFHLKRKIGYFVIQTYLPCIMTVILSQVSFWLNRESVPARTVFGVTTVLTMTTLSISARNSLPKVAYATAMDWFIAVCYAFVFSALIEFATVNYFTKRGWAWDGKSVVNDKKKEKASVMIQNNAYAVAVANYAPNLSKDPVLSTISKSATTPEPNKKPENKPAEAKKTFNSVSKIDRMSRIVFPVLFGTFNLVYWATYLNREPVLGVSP
UniProt Q99928: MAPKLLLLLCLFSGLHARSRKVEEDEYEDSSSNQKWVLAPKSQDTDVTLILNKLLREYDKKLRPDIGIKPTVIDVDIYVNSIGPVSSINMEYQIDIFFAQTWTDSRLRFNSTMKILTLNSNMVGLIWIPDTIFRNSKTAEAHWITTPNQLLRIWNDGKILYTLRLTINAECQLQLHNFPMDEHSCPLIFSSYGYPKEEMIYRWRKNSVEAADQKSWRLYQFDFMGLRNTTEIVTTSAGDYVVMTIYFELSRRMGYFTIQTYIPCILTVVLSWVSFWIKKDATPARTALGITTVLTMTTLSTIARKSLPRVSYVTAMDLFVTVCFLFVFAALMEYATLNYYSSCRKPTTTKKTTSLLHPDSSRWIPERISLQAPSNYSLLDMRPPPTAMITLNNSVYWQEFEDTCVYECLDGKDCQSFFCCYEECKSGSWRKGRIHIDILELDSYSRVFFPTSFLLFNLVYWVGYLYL

In patent US8952008B2, “Chemical compounds” (Pfizer Limited, priority 2012, dated 2015):

Target: human recombinant GABA A receptor containing the alpha2, beta2, and gamma3 subunits (Homo sapiens, UniProt P47869+Q99928)
Assay: Radioligand competition binding assay with [3H]Ro-15-1788 (Flumazenil);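 also: membranes from HEK cells expressing the receptor, incubated with radioligand to equilibrium, filter-bound radioactivity counted, Ki reported as geometric mean of replicate runs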

SMILES	Ki [nM]
CCn1cnc2c(-c3ccc(F)c(-c4ccc(S(=O)(=O)C(C)C)cc4F)c3)cnnc21	61.3
CCn1cnc2c(-c3ccc(F)c(-c4ccc(S(N)(=O)=O)cc4)c3)cnnc21 [Example 3, 5′-(7-Ethyl-7H-imidazo[4,5-c]pyridazin-4-yl)-2′-fluorobiphenyl-4-sulfonamide]	5.08
CCn1cnc2c(-c3ccc(F)c(-c4ccc(S(=O)(=O)NC)cc4)c3)cnnc21 [Example 8, 5′-(7-Ethyl-7H-imidazo[4,5-c]pyridazin-4-yl)-2′-fluoro-N-methylbiphenyl-4-sulfonamide]	7.45
CCn1cnc2c(-c3ccc(F)c(-c4ccc(S(=O)(=O)CC)cc4C(F)F)c3)cnnc21 [Example 14, 4-(2′-(Difluoromethyl)-4′-(ethylsulfonyl)-6-fluoro-[1,1′-biphenyl]-3-yl)-7-ethyl-7H-imidazo[4,5-c]pyridazine]	35.4
CCn1cnc2c(-c3ccc(O)c(-c4ccc(S(=O)(=O)CC)cc4OC)c3)cnnc21 [Example 48, 5-(7-Ethyl-7H-imidazo[4,5-c]pyridazin-4-yl)-4′-(ethylsulfonyl)-2′-methoxy-[1,1′-biphenyl]-2-ol]	92.2
